# Experimental data reported in article PMC8820617, “Machine learning-driven identification of drugs inhibiting cytochrome P450 2C9” (PLoS Computational Biology, 2022).
# Sequences of proteins named here, by UniProt entry; tags and fusion partners are left off.
# UniProt P11712, whole entry: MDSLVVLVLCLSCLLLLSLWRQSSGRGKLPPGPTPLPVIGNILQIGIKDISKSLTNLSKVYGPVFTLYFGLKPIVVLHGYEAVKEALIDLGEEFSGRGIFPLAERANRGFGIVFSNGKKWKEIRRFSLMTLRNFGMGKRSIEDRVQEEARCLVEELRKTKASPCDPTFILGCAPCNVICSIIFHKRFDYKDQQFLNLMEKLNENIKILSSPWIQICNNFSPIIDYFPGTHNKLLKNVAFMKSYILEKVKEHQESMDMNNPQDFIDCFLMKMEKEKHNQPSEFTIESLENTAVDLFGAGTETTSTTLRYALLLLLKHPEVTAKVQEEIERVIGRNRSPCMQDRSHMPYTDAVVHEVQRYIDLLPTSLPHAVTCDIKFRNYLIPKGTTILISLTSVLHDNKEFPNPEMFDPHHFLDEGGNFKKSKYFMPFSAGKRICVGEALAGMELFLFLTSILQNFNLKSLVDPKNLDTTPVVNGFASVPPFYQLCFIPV
# Target: CYP2C9 supersomes (Homo sapiens, UniProt P11712)
# Experiment: Inhibition of CYP2C9 on recombinant supersomes (diclofenac 4-hydroxylation, LC/MS-MS)
# Details: IC50 values determined with CYP2C9 supersomes, substrate diclofenac 5 μM
# Method: A CYP2C9-specific substrate (diclofenac) and recombinant supersomes were incubated with and without the study compounds (according to the protocol optimized by the Service Provider Admescope (Finland)). The concentrations of the studied compounds were 0.3, 1, 3, 10, 20, 30, 50, 60, 70, 90 and 100 μM. […] The enzymatic reactions were started after 6 min of preincubation by adding NADPH and terminated after 15 min by adding ice-cold acetonitrile. The supernatant was collected and centrifuged for analyses. The samples were analyzed by LC/MS-MS to determine the level of metabolites in the absence and presence of a candidate molecule. Spiked standard samples were not used, but quantification based on relative peak areas was performed (solvent control = 100%). The disappearance was evaluated as relative LC/MS peak areas, and the 0-min time points were marked as 100%. The disappearance rate was used to calculate the half-life and in vitro clearance. For details of the method, see S2 Text.
# Details of analytical method for inhibition tests using CYP2C9 supersomes and calculation of IC50
# Test compound concentrations: Test compound Test concentrations (µM)
# Diclofenac at 5 µM for CYP2C9
# Substrates and concentrations:
# Instrumentation: Waters Acquity UPLC + Thermo TSQ Endura triple quadrupole MS
# The IC50 value for the test compound was determined by fitting following equation to the data […]
smiles,measurement,value
Cc1nc(Nc2ncc(C(=O)Nc3c(C)cccc3Cl)s2)cc(N2CCN(CCO)CC2)n1 [Dasatinib],IC50,85 µM
